# Laboratory results: PubChem BioAssay AID368 (University of Pittsburgh Molecular Library Screening Center, 2006)
# Chains of the proteins cited; added tags and fusions are not shown.
# UniProt P30305, whole entry: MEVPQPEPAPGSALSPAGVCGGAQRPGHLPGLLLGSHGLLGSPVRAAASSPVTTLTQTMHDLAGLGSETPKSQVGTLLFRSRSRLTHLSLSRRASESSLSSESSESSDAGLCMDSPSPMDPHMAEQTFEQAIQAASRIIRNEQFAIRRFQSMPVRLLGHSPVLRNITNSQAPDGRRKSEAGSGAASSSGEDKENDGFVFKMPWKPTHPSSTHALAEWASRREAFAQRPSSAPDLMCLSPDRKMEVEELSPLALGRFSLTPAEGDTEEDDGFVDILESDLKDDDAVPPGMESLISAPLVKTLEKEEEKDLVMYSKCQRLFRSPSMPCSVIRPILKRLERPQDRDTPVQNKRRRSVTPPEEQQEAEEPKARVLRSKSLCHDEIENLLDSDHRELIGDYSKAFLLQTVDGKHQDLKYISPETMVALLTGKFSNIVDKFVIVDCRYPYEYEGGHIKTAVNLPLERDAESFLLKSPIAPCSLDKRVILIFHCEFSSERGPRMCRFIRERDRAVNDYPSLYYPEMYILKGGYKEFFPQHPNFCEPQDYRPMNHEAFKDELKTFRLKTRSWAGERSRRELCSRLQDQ
# The entries are a selection whose mix differs from that of the whole data set. Calls of active or inactive are those of the source. Rule as the data show it: active = inhibition above about 50%; inactive = the rest.
# Molecular target: M-phase inducer phosphatase 2 (Homo sapiens) (UniProt P30305)
# Test: inhibitors of Cdc25B phosphatase catalytic domain, primary screen, biochemical, OMFP fluorescence (AID 368)
# Settings: recombinant Cdc25B, OMFP fluorescence Ex485/Em525; hits give high values;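 compounds tested at 10 µM final in the well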
row,SMILES,inhibition
1,N/C(=N\O)c1c(N)no[n+]1[O-],inactive: -5.11%
2,Fc1ccccc1NC1CCN(Cc2ccccc2)CC1,inactive: -4.12%
3,CCOc1ncccc1C(=O)NCC1(N2CCOCC2)CCCCC1,inactive: -3.35%
4,CCC(CO)(C(=O)OC1CN2CCC1CC2)c1ccccc1 (configuration not stated),inactive: -5.1%
5,O=C(OC1CN2CCC1CC2)C1c2ccccc2Oc2ccccc21 (configuration not stated),inactive: -1.85%
6,COc1ccc(NC2CCN(CCc3ccccc3)CC2)c(OC)c1,inactive: -10.5%
7,N#CC1(Nc2ccccc2)CCN(CCc2ccccc2)CC1,inactive: -2.57%
